Laboratory results from patent US12642886B2, “POSS viscoelastic hemostatic agents” (Hybrid Plastics, Incorporated, priority 2019, dated 2026).

System: erythrocytes

With “trisilanol hepta-isoOctyl POSS [i-octylPOSS trisilanol]” the lysis of erythrocytes was “do not lyse erythrocytes”.
